From ChEMBL document CHEMBL1127120, “Benzofuran based angiotensi II antagonists related to GR117289: Part II; amino acid amides” (Bioorg Med Chem Lett, 1993) come the findings set out here.

Amino acid sequences for entries named in this document (tags omitted).
UniProt P34976, whole entry: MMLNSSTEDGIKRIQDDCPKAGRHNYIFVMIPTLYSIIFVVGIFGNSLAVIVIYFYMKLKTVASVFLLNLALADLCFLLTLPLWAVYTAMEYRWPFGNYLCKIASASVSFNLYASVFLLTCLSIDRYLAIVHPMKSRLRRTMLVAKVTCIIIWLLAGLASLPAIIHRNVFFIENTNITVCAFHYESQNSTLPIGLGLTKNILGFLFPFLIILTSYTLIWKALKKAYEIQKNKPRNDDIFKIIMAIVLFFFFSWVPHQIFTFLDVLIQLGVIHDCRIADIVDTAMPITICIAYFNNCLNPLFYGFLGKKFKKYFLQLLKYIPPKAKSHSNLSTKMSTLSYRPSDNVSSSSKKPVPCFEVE

What is called pKB is the KB on a negative log10 scale, so that one unit is a factor of ten.

The assay has as its target Type-1 angiotensin II receptor (Oryctolagus cuniculus) (UniProt P34976). Nature of the assay: Affinity for Angiotensin II receptor, type 1 as antagonism of angII contractile effect in rabbit isolated thoracic aorta. It counts as functional, tissue-based.

In turn, `CCCCc1nc(Cl)c(C(=O)O)n1Cc1ccc2oc(-c3ccccc3-c3nnn[nH]3)c(Br)c2c1` registered a pKB of 9.8.
